Reference: ChEMBL document CHEMBL3593234, “Lanostane Triterpenes from the Tibetan Medicinal Mushroom Ganoderma leucocontextum and Their Inhibitory Effects on HMG-CoA Reductase and α-Glucosidase” (J Nat Prod, 2015)

Protein sequences, listed by entry. Tags and fused reporters are not part of them. Residues count along the entry.
UniProt P23739, 1014-1841 limits assumed: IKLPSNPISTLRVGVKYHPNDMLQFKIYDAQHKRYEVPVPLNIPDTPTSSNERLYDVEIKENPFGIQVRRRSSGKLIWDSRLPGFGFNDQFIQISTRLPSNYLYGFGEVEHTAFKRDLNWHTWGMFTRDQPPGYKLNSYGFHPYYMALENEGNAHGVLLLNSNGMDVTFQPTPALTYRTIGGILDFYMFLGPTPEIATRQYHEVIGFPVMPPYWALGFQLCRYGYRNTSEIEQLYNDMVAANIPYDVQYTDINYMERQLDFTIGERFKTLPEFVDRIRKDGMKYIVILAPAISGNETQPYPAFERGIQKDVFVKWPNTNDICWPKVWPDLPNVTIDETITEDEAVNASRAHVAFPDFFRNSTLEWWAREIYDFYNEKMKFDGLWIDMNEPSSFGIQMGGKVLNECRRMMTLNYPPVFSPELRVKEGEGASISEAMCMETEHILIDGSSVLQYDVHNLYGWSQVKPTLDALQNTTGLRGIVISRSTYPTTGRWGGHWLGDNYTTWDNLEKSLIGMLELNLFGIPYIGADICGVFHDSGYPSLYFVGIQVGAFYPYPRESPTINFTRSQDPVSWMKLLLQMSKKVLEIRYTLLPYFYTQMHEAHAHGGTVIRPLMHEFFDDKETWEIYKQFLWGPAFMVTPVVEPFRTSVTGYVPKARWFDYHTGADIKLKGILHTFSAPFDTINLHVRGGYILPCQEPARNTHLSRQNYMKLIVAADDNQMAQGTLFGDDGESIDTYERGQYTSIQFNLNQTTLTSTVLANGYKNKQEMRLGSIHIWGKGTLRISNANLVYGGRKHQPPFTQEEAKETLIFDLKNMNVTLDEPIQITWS
UniProt P23739, 1-1013 limits assumed: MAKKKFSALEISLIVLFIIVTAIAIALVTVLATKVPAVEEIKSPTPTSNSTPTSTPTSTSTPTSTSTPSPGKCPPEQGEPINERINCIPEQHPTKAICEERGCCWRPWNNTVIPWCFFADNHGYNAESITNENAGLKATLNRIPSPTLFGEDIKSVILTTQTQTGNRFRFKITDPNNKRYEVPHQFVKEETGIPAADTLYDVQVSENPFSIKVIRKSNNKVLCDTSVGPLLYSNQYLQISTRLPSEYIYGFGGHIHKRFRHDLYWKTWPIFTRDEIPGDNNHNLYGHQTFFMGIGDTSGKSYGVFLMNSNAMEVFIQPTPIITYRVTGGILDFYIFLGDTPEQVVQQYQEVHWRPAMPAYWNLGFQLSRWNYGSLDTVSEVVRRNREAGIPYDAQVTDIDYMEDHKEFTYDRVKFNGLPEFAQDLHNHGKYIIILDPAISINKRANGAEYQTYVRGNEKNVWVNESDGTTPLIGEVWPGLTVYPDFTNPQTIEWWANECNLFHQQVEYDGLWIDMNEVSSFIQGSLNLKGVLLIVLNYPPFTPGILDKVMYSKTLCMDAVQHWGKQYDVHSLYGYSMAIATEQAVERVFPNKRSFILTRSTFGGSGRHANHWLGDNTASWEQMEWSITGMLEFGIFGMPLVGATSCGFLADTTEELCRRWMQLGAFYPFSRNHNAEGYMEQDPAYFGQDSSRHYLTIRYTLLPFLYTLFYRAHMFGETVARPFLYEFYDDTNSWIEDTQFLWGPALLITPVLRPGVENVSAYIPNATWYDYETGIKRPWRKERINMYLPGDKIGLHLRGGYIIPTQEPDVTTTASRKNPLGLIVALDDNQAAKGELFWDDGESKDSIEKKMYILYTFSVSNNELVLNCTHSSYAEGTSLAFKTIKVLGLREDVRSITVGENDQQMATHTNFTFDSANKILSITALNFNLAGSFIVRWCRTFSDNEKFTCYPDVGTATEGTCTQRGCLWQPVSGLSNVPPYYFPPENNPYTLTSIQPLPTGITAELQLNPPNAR

Molecular target: Sucrase-isomaltase, intestinal (Rattus norvegicus, UniProt P23739)
Test: Inhibition of sucrase in rat intestinal mucosa pre-incubated for 40 mins using sucrose substrate
Format: tissue-based
Procedure, shortened: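 Rat intestinal mucosa powder (1.0 g) was suspended in 3 mL 0.9% saline and sonicated at 4 °C (12 × 30 s), then spun at 10000g, 4 °C, 30 min; the supernatant served as enzyme. Compound in DMSO was mixed with substrate (maltose, sucrose or p-nitrophenyl-α-D-glucopyranoside) in 0.1 M phosphate buffer pH 6.9 and preincubated 40 min. Glucose was read by GOD kit at 550 nm, with blank-corrected percent inhibition.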

C[C@H]1O[C@H](O[C@H]2[C@H](O)[C@@H](O)[C@@H](O[C@H]3[C@H](O)[C@@H](O)C(O)O[C@@H]3CO)O[C@@H]2CO)[C@H](O)[C@@H](O)[C@@H]1N[C@H]1C=C(CO)[C@@H](O)[C@H](O)[C@H]1O (stereo partly specified) [ACARBOSE]
IC50: 20.2 µM
